Chains of the proteins cited; added tags and fusions are not shown. Residues count along the entry.
UniProt P07949, 29-1114 V804L: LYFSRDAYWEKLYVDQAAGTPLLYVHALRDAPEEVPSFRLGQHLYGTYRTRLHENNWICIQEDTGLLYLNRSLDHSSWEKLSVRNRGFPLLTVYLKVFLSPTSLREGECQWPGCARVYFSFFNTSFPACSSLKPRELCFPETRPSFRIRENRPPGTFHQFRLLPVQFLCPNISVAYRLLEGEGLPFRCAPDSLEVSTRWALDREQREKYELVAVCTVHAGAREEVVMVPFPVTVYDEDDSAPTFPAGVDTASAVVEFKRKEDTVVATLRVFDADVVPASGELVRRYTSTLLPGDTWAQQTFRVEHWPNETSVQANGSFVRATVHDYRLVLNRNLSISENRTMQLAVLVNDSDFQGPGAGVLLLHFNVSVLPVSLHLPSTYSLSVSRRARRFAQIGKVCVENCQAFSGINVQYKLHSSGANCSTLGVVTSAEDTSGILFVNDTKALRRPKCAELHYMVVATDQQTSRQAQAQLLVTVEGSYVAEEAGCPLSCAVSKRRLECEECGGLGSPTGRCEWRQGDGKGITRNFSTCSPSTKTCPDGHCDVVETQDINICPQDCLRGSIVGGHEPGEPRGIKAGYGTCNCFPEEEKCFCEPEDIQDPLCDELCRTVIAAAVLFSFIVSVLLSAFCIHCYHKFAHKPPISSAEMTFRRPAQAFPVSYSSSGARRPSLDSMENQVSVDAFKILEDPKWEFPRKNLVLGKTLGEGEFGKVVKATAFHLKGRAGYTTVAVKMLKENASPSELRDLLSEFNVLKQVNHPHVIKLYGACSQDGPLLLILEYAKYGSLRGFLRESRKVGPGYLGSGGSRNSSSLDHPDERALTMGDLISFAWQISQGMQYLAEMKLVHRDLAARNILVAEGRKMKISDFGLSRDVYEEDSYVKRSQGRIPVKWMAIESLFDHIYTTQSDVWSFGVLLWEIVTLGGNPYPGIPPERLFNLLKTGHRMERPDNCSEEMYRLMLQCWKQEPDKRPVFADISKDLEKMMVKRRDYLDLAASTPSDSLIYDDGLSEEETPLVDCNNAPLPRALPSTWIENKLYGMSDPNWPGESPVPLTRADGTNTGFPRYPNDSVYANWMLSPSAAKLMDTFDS

According to patent US10183928B2, “Inhibitors of RET” (BLUEPRINT MEDICINES CORPORATION, priority 2016, dated 2019):

Molecular target: RET V804L (Homo sapiens (Human), UniProt P07949, V804L)
Assay: RET V804L Gatekeeper Mutant Assay at KM (Caliper electrophoretic mobility shift)
Format: biochemical
Details: 10 μM ATP, 25° C., 120 minutes; read-out: V804L Mutant (RET Inhibitory Activity)

Row | SMILES | IC50 [nM]
1 | Cc1cc(Nc2cc(C)[nH]n2)nc([C@]2(O)C[C@](C)(C(=O)N[C@@H](C)c3ccc(-n4cc(F)cn4)nc3)C2)c1 [Compound 118] | < 100
2 | Cc1cc(Nc2cc(C)[nH]n2)nc([C@]2(F)C[C@H](C(=O)N[C@@H](C)c3ccc(-n4cc(F)cn4)nc3)C2)c1 [Compound 113, (1S,3R)-3-fluoro-N—((S)-1-(6-(4-fluoro-1H-pyrazol-1-yl)pyridin-3-yl)ethyl)-3-(4-methyl-6-(5-methyl-1H-pyrazol-3-ylamino)pyridin-2-yl)cyclobutanecarboxamide] | 10 to 100
3 | CO[C@]1(C(=O)N[C@@H](C)c2ccc(-n3cc(F)cn3)nc2)C[C@H](c2nc(C)cc(Nc3cc(C)[nH]n3)n2)C1 [Compound 121] | ≤ 1
4 | CO[C@]1(C(=O)N[C@@H](C)c2ccc(-n3cc(F)cn3)nc2)C[C@@](O)(c2cc(C)cc(Nc3cc(C)[nH]n3)n2)C1 [Compound 128] | < 100
5 | Cc1cc(Nc2cc(C)[nH]n2)nc([C@]2(O)C[C@@H](C(=O)N[C@@H](C)c3ccc(-n4cc(F)cn4)nc3)C2)c1 [Compound 109] | ≤ 1
6 | CO[C@]1(C(=O)N[C@@H](C)c2ccc(-n3cc(F)cn3)nc2)C[C@H](c2cc(C)cc(Nc3cc(C)[nH]n3)n2)C1 [Compound 120] | ≤ 1
7 | CO[C@]1(C(=O)N[C@@H](C)c2ccc(-n3cc(F)cn3)nc2)C[C@H](c2cc(C)nc(Nc3cc(C)[nH]n3)n2)C1 [Compound 122] | ≤ 1
8 | Cc1cc(Nc2cc(C)[nH]n2)nc([C@H]2C[C@H](C(=O)N[C@H](C)c3ccc(-n4cccn4)nc3)C2)c1 [Compound 101] | ≤ 1
9 | CO[C@]1(C(=O)N[C@@H](C)c2ccc(-n3cc(F)cn3)nc2)C[C@](O)(c2cc(C)cc(Nc3cc(C)[nH]n3)n2)C1 [Compound 127] | ≤ 1
10 | Cc1cc(Nc2cc(C)[nH]n2)nc([C@]2(F)C[C@](C)(C(=O)N[C@@H](C)c3ccc(-n4cc(F)cn4)nc3)C2)c1 [Compound 126] | < 100
11 | Cc1cc(Nc2cc(C)[nH]n2)nc([C@H]2C[C@H](C(=O)NCc3ccc(-n4cccn4)nc3)C2)c1 [Compound 100] | ≤ 1
12 | CO[C@]1(C(=O)N[C@@H](C)c2cnc(-n3cc(F)cn3)cn2)C[C@H](c2cc(C)nc(Nc3cc(C)[nH]n3)n2)C1 [Compound 124] | ≤ 1
13 | Cc1cc(Nc2cc(C)[nH]n2)nc([C@H]2C[C@@H](C(=O)N[C@@H](C)c3ccc(-n4cc(F)cn4)nc3)C2)c1 [Compound 103] | 1.01 to 10
14 | CO[C@]1(c2cc(C)cc(Nc3cc(C)[nH]n3)n2)C[C@H](C(=O)N[C@@H](C)c2ccc(-n3cc(F)cn3)nc2)C1 [Compound 117, (1S,3R)—N—((S)-1-(6-(4-fluoro-1H-pyrazol-1-yl)pyridin-3-yl)ethyl)-3-methoxy-3-(4-methyl-6-((5-methyl-1H-pyrazol-3-yl)amino)pyridin-2-yl)cyclobutane-1-carboxamide] | 10 to 100
15 | Cc1cc(Nc2cc(C)[nH]n2)nc([C@]2(O)C[C@@](C)(C(=O)N[C@@H](C)c3ccc(-n4cc(F)cn4)nc3)C2)c1 [Compound 119] | ≤ 1
16 | Cc1cc(Nc2cc(C)[nH]n2)nc([C@H]2C[C@H](C(=O)N[C@@H](C)c3ccc(-n4cc(F)cn4)nc3)C2)n1 [Compound 105] | ≤ 1
17 | Cc1cc(Nc2cc(C)[nH]n2)nc([C@H]2C[C@H](C(=O)N[C@H](C)c3cnc(-n4cc(F)cn4)cn3)C2)c1 [Compound 104] | ≤ 1
18 | Cc1cc(Nc2cc(C)[nH]n2)nc([C@H]2C[C@](C)(C(=O)N[C@@H](C)c3cnc(-n4cc(F)cn4)cn3)C2)n1 [Compound 110] | ≤ 1
19 | Cc1cc(Nc2cc(C)[nH]n2)nc([C@H]2C[C@H](C(=O)N[C@@H](C)c3ccc(-n4cc(F)cn4)nc3)C2)c1 [Compound 102] | ≤ 1
20 | Cc1cc(Nc2cc(C)[nH]n2)nc([C@H]2C[C@@](C)(C(=O)N[C@@H](C)c3ccc(-n4cc(F)cn4)nc3)C2)n1 [Compound 107, (1S,3R)—N—((S)-1-(6-(4-fluoro-1H-pyrazol-1-yl)pyridin-3-yl)ethyl)-1-methyl-3-(4-methyl-6-((5-methyl-1H-pyrazol-3-yl)amino)pyrimidin-2-yl)cyclobutane-1-carboxamide] | 1.01 to 10
21 | CO[C@]1(C(=O)N[C@@H](C)c2cnc(-n3cc(F)cn3)cn2)C[C@H](c2nc(C)cc(Nc3cc(C)[nH]n3)n2)C1 [Compound 123] | ≤ 1
22 | Cc1cc(Nc2cc(C)[nH]n2)nc([C@]2(O)C[C@@H](C(=O)N(C)[C@@H](C)c3ccc(-n4cc(F)cn4)nc3)C2)c1 [Compound 116] | 1.01 to 10
23 | Cc1cc(Nc2cc(C)[nH]n2)nc([C@H]2C[C@](C)(C(=O)N[C@@H](C)c3ccc(-n4cc(F)cn4)nc3)C2)n1 [Compound 108, (1R,3S)—N—((S)-1-(6-(4-fluoro-1H-pyrazol-1-yl)pyridin-3-yl)ethyl)-1-methyl-3-(4-methyl-6-((5-methyl-1H-pyrazol-3-yl)amino)pyrimidin-2-yl)cyclobutane-1-carboxamide] | ≤ 1
24 | Cc1cc(Nc2cc(C)[nH]n2)nc([C@]2(F)C[C@@H](C(=O)N[C@@H](C)c3ccc(-n4cc(F)cn4)nc3)C2)c1 [Compound 114] | 1.01 to 10
